The test relates to unilateral 6-OHDA rats. The experiment in a line: rat unilateral 6-OHDA rotation model of Parkinson's disease. The note with it: in vivo. From the text: Summary. In the rat unilateral 6-hydroxydopamine (6-OHDA) rotation model of Parkinson's disease, 6-OHDA is infused unilaterally into the medial forebrain bundle, the substantia nigra, or the striatum. […] When challenged with direct-acting dopamine receptor agonists, unilateral 6-OHDA rats turn contralaterally (away from the side of the lesion) because of the increased sensitivity of the postsynaptic dopamine receptors on the lesioned side. The experiments described below examine tolerance induced by the full D1 agonist, dinapsoline, using the 6-OHDA model.
Subjects. Adult male Sprague-Dawley Rats (Hilltop Laboratories, Chatsworth, Calif.), weighing between 280 and 320 grams, were used as subjects. Animals were housed individually with food and water available ad libitum, except as noted below. The light:dark schedule was 12 h:12 h, and testing was performed during the light cycle. […]
Acute Dinapsoline Administration. Beginning 1 week after the screening dose with apomorphine, subjects (n=12) were tested once per week with dinapsoline (0.02, 0.2, or 2 mg/kg) or vehicle (s.c.) using a counterbalanced design, and rotation behavior was monitored for 10 h. […] Rats were fasted for 16 h before dosing with oral gavage, and rotation behavior was monitored for 10 h.

For the compound `CCCN1CCC[C@@H]2Cc3n[nH]cc3C[C@H]21` [quinpirole, reference compound], the rotation entry is on record as “robust rotation” and the “rotation on day 4” value is recorded as “equal rotation in both groups”.

Values taken from patent publication US6916823B2, “Method of treatment of dopamine-related dysfunction” (Purdue Research Foundation, priority 2001, dated 2005).
